Drawing on published antibiotic growth screens (doi:10.1038/s41589-023-01349-8), this text covers relative growth for 55 compounds.

The other results are listed elsewhere or left out.

The subject of the assay is A. baumannii ATCC 17978. Briefly: relative growth (fraction of control); higher = less inhibition. To be noted: 50 µM.
In the case of `COc1cc(/C=C/c2cc(O)cc(O[C@@H]3O[C@H](CO)[C@@H](O)[C@H](O)[C@H]3O)c2)ccc1O[C@@H]1O[C@H](CO)[C@@H](O)[C@H](O)[C@H]1O`, the relative growth is 1.07.
Consider `O=S(=O)(N1CCOCC1)N1CCCN(S(=O)(=O)N2CCOCC2)CC1`, for which the relative growth was found to be 1.02.
With `Cc1ccc(S(=O)(=O)N(C)C[C@H]2Oc3cc(Br)ccc3S(=O)(=O)N([C@H](C)CO)C[C@H]2C)cc1` the figure was 0.925; with `CCCCCCCCCCCCCCCCCC(=O)O.CC[C@H]1OC(=O)[C@H](C)[C@@H](O[C@H]2C[C@@](C)(OC)[C@@H](O)[C@H](C)O2)[C@H](C)[C@@H](O[C@@H]2O[C@H](C)C[C@H](N(C)C)[C@H]2O)[C@](C)(O)C[C@@H](C)C(=O)[C@H](C)[C@@H](O)[C@]1(C)O`, 0.171; with `COc1ccc([C@H]2[C@@H](C(N)=O)C2(C#N)C#N)cc1`, 1.07.
The value for `CCCCN(CCCC)CC(O)c1cc(Cl)cc2c1-c1ccc(Cl)cc1/C2=C\c1ccc(Cl)cc1` (stereo not given) was 1.28.
The value for `COc1ccc(O)cc1` was 1.19; that for `CCO/N=[N+](\[O-])N1CCCC1` was 0.807.
Turning to `CCCCCCCCCCCCCCCCCCCCCCO`, the relative growth came to 0.97.
The value for `O=C(N[C@H]1CC[C@H](CCn2cc(C3(O)CCCC3)nn2)O[C@@H]1CO)C1CCOCC1` was 1.03; that for `O=C(Cn1ccc([N+](=O)[O-])n1)N1CCOCC1` was 1.17; that for `CO[C@@]12[C@@H]3NC3CN1C1=C(C(=O)C(N)=C(C)C1=O)[C@@H]2COC(N)=O` (stereo not given in full) was 0.171.
The value for `CC(C)(CO)C(O)C(=O)NCCCO` (stereo not given) was 0.89.
With `[N-]=[N+]=Nc1ccccc1[C@H]1OC(c2ccc(OCCCO)cc2)=N[C@@]1(CCS(=O)(=O)c1ccccc1)C(=O)NC[C@@H](O)CO` the figure was 0.837; with `NCCCNCCCCNCCCN`, 0.885.
In turn, `COc1ccc(-c2oc3cc(OC)c(OC)c(OC)c3c(=O)c2OC)cc1` yielded a relative growth of 1.01.
In the case of `O=C(C[C@@H]1CC[C@H](NS(=O)(=O)c2ccccc2)[C@H](CO)O1)NCc1ccncn1`, the relative growth came to 1.22.
With `COc1ccc(CCNC(=O)[C@@]2(Cc3ccccc3I)c3ccccc3C(=O)N(Cc3ccccc3)[C@H]2c2ccc(COC(=O)NCCCCCC(=O)NO)cc2)cc1` the figure was 1.06; with `CN(C)CC(=O)N[C@@H]1CC[C@@H](CCNC(=O)C2CCC2)O[C@H]1CO`, 1.02.
The value for `COc1ccc(S(=O)(=O)N2C[C@H](O)COC[C@@H]3O[C@@H](CC(=O)N[C@@H]4CCN(Cc5ccccc5)C4)CC[C@H]32)cc1` was 0.93; that for `CC1=NN(c2ccccc2)C(=O)C1` was 0.98; that for `O=C(/C=N/O)NCc1ccccn1` was 0.951.
With `Cn1cnc2c1c(=O)[nH]c(=O)n2C` the figure was 0.908; with `CC(C)CCCC(C)NC(C)C.Cl` (stereo not given), 1.05.
As to `CO/N=C(/C(=O)NC1C(=O)N2C(C(=O)OC(C)OC(C)=O)=C(COC(N)=O)CSC12)c1ccco1` (stereo not given), the relative growth was 0.997.
The value for `CCNC(=O)C[C@H]1C=C[C@H](NC(=O)C2CCOCC2)[C@H](CO)O1` was 1.14; that for `O=C(C[C@H]1CC[C@@H]2[C@H](COC[C@@H](O)CN2C(=O)Nc2ccc(Cl)cc2)O1)NC1Cc2ccccc2C1` was 0.983; that for `Cc1ccc(S(=O)(=O)[N-]Cl)cc1.[Na+]` was 0.859.
The value for `COCC#Cc1ccc2c(c1)O[C@H](CN(C)S(C)(=O)=O)[C@H](C)CN([C@H](C)CO)S2(=O)=O` was 1.01; that for `CO[C@H]1/C=C\C=C(/C)C(=O)NC2=CC(=O)C(NCCN(C)C)=C(C[C@@H](C)C[C@H](OC)[C@H](O)[C@@H](C)/C=C(\C)[C@@H]1OC(N)=O)C2=O` was 1.13.
The value for `COCC(=O)Nc1ccc2c(c1)C(=O)N(C)C[C@H](OC)[C@H](C)CN(Cc1cccc(F)c1)[C@@H](C)CO2` was 1.18; that for `NNC(=O)c1nc(-c2ccccc2)no1` was 0.844.
In the case of `C[C@H](CO)N1C[C@H](C)[C@H](CN(C)C(=O)c2cnccn2)Oc2cc(C#CCC3CCCC3)ccc2S1(=O)=O`, the relative growth came to 0.744.
As to `O=C(O)CCNC(=O)c1ccccc1`, the relative growth was 1.03.
The value for `COc1ccc(-c2coc3cc(OC)ccc3c2=O)cc1` was 1.07.
Compound `CCC(=O)OCC(=O)C1(OC(=O)CC)C(C)CC2C3CCC4=CC(=O)C=CC4(C)C3(Cl)C(O)CC21C` (stereo not given) came in with a relative growth of 1.13.
The value for `NC(=O)c1c(N)c(C(N)=S)n2c1CCC2` was 1.05; that for `C[C@@H]1CN([C@@H](C)CO)C(=O)c2cc(C#CC3(O)CCCC3)cnc2O[C@H]1CN(C)S(=O)(=O)c1ccc(F)cc1` was 0.857.
With `CNC(=O)C[C@H]1CC[C@H]2[C@@H](COC[C@H](O)CN2C(=O)c2ccc3c(c2)OCO3)O1` the figure was 1.09.
With `COc1ccc(S(=O)(=O)N2C[C@@H](O)COC[C@@H]3O[C@H](CC(=O)NCCN4CCCCC4)CC[C@H]32)cc1` the figure was 0.858.
Consider `COc1cccc(NC(=O)N[C@@H]2CC[C@H](CC(=O)N3CCN(C)CC3)O[C@H]2CO)c1`, for which the relative growth turned out to be 1.
Consider `C[C@@H](O)CNC(=O)C(=O)NC(C)(C)C`, for which the relative growth amounted to 0.912.
The value for `CC(C)NC(=N)NC(=N)Nc1ccc(Cl)cc1.Cl` was 1.04; that for `COc1cc(O)cc(O)c1C(=O)c1ccccc1` was 0.752; that for `C[C@@H]1CC2C3C[C@H](F)C4=CC(=O)C=C[C@]4(C)[C@@]3(F)[C@@H](O)C[C@]2(C)[C@@]1(O)C(=O)CO` (stereo not given in full) was 1.01.
`C=CCOC(=O)[C@H]1[C@@H]2C(=O)O[C@@H](c3ccccc3)[C@@H](c3ccccc3)N2[C@@H](c2ccc(OCCOC(=O)[C@@H]3C[C@@H]4C(=O)N[C@@H](CCCC[N+](C)(C)C)C(=O)N4[C@@H]3c3ccc(O)cc3)cc2)[C@]12C(=O)Nc1ccc(I)cc12` came in with a relative growth of 1.48.
With `Cl.N=C(N)n1cccn1` the figure was 0.127; with `CN(CC(=O)Nc1ccc(F)cc1F)S(=O)(=O)c1ccc2c(c1)c(=O)n(C)c(=O)n2C`, 0.928; with `COc1ccc([C@H]([C@H](Cc2ccccc2)OC(C)=O)N(C[C@@H](/C=C/c2ccccc2)CC(=O)N(C)C)[C@@H](Cc2ccccc2)C(OC)OC)cc1`, 1.27.
With `CC[C@@H](O)CNNC(=O)OC(C)(C)C` the figure was 1.22; with `OCC1(CO)COC(COc2ccccc2)=N1`, 0.926; with `C[C@@H]1CN([C@H](C)CO)S(=O)(=O)c2ccc(C#Cc3ccncc3)cc2O[C@@H]1CN(C)S(=O)(=O)c1ccc(F)cc1`, 0.911.
Regarding `N[C@@H](CO)C(=O)O`, the relative growth was 1.05.
`Nc1ncnc2[nH]cnc12` returned a relative growth of 0.932.
`NNC(=O)[C@H]1CCCNC1=O` displayed a relative growth of 0.813.
